Source: patent US20250340552A1, “COMPOUNDS, COMPOSITIONS AND METHODS OF TREATING DISORDERS” (HOTSPOT THERAPEUTICS, INC., priority 2022, published 2025)
Read-outs that look alike come from different tables or passages of the source.

Chains of the proteins cited; added tags and fusions are not shown.
UniProt Q13191, whole entry: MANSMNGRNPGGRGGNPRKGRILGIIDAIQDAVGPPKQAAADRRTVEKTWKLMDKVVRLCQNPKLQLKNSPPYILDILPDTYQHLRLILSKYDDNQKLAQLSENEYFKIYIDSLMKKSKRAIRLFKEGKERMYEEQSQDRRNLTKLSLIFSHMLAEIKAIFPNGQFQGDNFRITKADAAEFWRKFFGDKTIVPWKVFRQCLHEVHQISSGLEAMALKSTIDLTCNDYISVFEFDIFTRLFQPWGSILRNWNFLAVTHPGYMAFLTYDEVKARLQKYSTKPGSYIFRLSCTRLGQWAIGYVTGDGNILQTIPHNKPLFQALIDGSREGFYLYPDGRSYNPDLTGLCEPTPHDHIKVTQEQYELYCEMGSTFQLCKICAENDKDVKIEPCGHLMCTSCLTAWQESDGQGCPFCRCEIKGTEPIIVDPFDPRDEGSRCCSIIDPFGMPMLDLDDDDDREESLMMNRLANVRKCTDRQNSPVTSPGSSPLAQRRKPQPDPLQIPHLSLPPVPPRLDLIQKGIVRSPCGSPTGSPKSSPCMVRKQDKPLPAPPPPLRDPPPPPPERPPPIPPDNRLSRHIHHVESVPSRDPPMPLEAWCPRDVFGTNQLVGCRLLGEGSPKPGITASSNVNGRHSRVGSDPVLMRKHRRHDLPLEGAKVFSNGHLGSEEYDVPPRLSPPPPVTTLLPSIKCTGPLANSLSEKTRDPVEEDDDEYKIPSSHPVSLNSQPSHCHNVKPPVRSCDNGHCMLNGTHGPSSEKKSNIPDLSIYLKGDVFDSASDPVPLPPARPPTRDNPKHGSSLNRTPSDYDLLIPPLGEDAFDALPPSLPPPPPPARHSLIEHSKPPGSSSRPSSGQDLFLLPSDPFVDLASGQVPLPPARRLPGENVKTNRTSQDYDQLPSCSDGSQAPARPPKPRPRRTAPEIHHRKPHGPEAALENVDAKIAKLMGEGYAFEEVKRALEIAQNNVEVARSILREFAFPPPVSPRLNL

Molecular target: T1, Cbl-B (Homo sapiens, UniProt Q13191)
T1 construct: MSD-Based Assay for Degradation of Cbl-B in THP-1 Cells; endogenous in cells; host or cells: THP-1 (title) / Jurkat (protocol text)
Assay: MSD-based assay for degradation of Cbl-B in THP-1 cells
Assay type: cell-based
Description: MSD-Based Assay for Degradation of Cbl-B in THP-1 Cells
Assay plates were then shaken at 600 rpm for 5 minutes, followed by incubation for 24 hours in the 37° C. TC incubator. […] Cell debris was then spun down at maximum speed (about 3200 g) for 30 min and lysates frozen in the −80° C. fridge. Meanwhile, MSD plates (L15XA-3) were coated overnight at 4° C. with 1 ug/mL capture antibody (Anti-Cbl-B antibody, 246C5a and Mouse mAB, ab54362). […] Blocking buffer was 3% Blocker A (MSD, R93BA-4) in TBST. Plates were washed 3× with 150 ul/well of 1×TBST and sample lysates (70 ul/well) then added, followed by shaking for 1 hr at RT, 600 rpm. […] Plates were again washed 3× with 150 ul/well of 1×TBST, followed by addition of Secondary Detection antibody, SULFO-TAG anti-species antibody (Anti Rabbit Antibody (R32AB-5) MSD, R32AB-1) at a final concentration of 1 ug/ml and 25 uL/well, followed by shaking for 1 hr at RT, 600 rpm. Plates were again washed 3× with 150 ul/well of 1×TBST, followed by addition of 1×MSD reading buffer (MSD, R92TC-2), 150 ul/well, diluted from 4× with water.
Compound Dmax were binned into A through D as follows: A indicates >70%, B indicates 50-70%, C indicates 30-50%, D indicates <30%.

[1] = Cbl-B degradation, Jurkat cells seeded (heading: THP-1 cells), 24 hours incubation, MSD readout, read-out: Dmax

Row | SMILES | Dmax [1] [%] | Dmax (THP-1) [%]
1 | Cn1cnnc1[C@@H](c1cccc(-n2cc3c(C(F)(F)F)cc(CN4CCC[C@H](OCc5ccc(CN6CCN(c7ccc8c(c7)CN([C@@H]7CCC(=O)NC7=O)C8=O)CC6)cc5)C4)cn3c2=O)c1)C1CCC1 (single isomer, unassigned) [Compound 81] |  | < 30
2 | CN(CCO[C@@H]1CCCN(Cc2cc(C(F)(F)F)c3cn(-c4cccc([C@H](c5nncn5C)C5CCC5)c4)c(=O)n3c2)C1)C(=O)c1ccc(N2CCN(c3ccc4c(c3)CN([C@@H]3CCC(=O)NC3=O)C4=O)CC2)cc1 (single isomer, unassigned) [Compound 103] |  | 50 to 70
3 | CN(CCO[C@H]1CCCN(Cc2cc(C(F)(F)F)c3cn(-c4cccc([C@H](c5nncn5C)C5CCC5)c4)c(=O)n3c2)C1)C(=O)c1ccc(N2CCN(c3ccc4c(c3)CN([C@@H]3CCC(=O)NC3=O)C4=O)CC2)cc1 (single isomer, unassigned) [Compound 105] |  | > 70
4 | Cn1cnnc1[C@@H](c1cccc(-n2cc3c(C(F)(F)F)cc(CN4CCC(CCN5CCC(CN6CCN(c7ccc8c(c7)CN([C@@H]7CCC(=O)NC7=O)C8=O)CC6)CC5)CC4)cn3c2=O)c1)C1CCC1 (single isomer, unassigned) [Compound 109] |  | 50 to 70
5 | CN(CCN(C)C(=O)c1ccc(N2CCN(c3ccc4c(c3)CN([C@@H]3CCC(=O)NC3=O)C4=O)CC2)cc1)Cc1cc(C(F)(F)F)c2cn(-c3cccc([C@H](c4nncn4C)C4CCC4)c3)c(=O)n2c1 (single isomer, unassigned) [Compound 139] |  | < 30
6 | Cn1cnnc1[C@@H](c1cccc(-n2cc3c(C(F)(F)F)cc(CN4CCC[C@H](OCc5ccc(CC6CCN(c7ccc8c(c7)CN([C@@H]7CCC(=O)NC7=O)C8=O)CC6)cc5)C4)cn3c2=O)c1)C1CCC1 (single isomer, unassigned) [Compound 187] |  | < 30
7 | Cn1cnnc1[C@@H](c1cccc(-n2cc3c(C(F)(F)F)cc(CN4CCC[C@@H](OCc5ccc(CN6CCN(c7ccc8c(c7)CN(C7CCC(=O)NC7=O)C8=O)CC6)cc5)C4)cn3c2=O)c1)C1CCC1 (stereo partly shown) [Compound 95] |  | 50 to 70
8 | Cn1cnnc1CC1(c2cccc(-n3cc4c(C(F)(F)F)cc(CN5CCN(CCc6ccc(C7CCN(c8ccc9c(c8)CN([C@H]8CCC(=O)NC8=O)C9=O)CC7)cc6)CC5)cn4c3=O)c2)COC1 [Compound 230] | > 70 | 

Now from value to compound, other results behind:

Row | Dmax [1] [%] | SMILES | Dmax (THP-1) [%]
9 | 30 to 50 | CN(CCN(C)C(=O)c1ccc(N2CCN(c3ccc4c(c3)CN([C@H]3CCC(=O)NC3=O)C4=O)CC2)cc1)Cc1cc(C(F)(F)F)c2cn(-c3cccc([C@H](c4nncn4C)C4CCC4)c3)c(=O)n2c1 (single isomer, unassigned) [Compound 140] | 
10 | 30 to 50 | Cn1cnnc1[C@@H](c1cccc(-n2cc3c(C(F)(F)F)cc(CN4CCC[C@H](OCc5ccc(CC6CCN(c7ccc8c(c7)CN([C@H]7CCC(=O)NC7=O)C8=O)CC6)cc5)C4)cn3c2=O)c1)C1CCC1 (single isomer, unassigned) [Compound 188] | 
11 | 30 to 50 | Cn1cnnc1[C@@H](c1cccc(-n2cc3c(C(F)(F)F)cc(CN4CCC[C@@H](OCc5ccc(CC6CCN(c7ccc8c(c7)CN([C@H]7CCC(=O)NC7=O)C8=O)CC6)cc5)C4)cn3c2=O)c1)C1CCC1 (single isomer, unassigned) [Compound 192] | 
12 | 30 to 50 | Cn1cnnc1[C@@H](c1cccc(-n2cc3c(C(F)(F)F)cc(CN4CCC[C@H](OCc5ccc(CN6CCN(c7ccc8c(c7)CN([C@H]7CCC(=O)NC7=O)C8=O)CC6)cc5)C4)cn3c2=O)c1)C1CCC1 [Compound 82] | 
13 | 30 to 50 | Cn1cnnc1[C@@H](c1cccc(-n2cc3c(C(F)(F)F)cc(CN4CCC(N5CCC(CN6CCN(c7ccc8c(c7)CN([C@H]7CCC(=O)NC7=O)C8=O)CC6)CC5)CC4)cn3c2=O)c1)C1CCC1 [Compound 136] | 
